Measured values: patent publication US12594246B2, “Formulations for enteric delivery of therapeutic agents” (CuriOralRx, LLC, priority 2016, dated 2026)

Conditions: 0.1 mL of 10 mg/mL insulin in 0.01N HCl added to 1 mL 2% EUDRAGIT L 100 in ethanol; no visible precipitation

For insulin, which “Solubility of insulin in organic solvent at acidic pH” value is on record?
Its value is “soluble even at 90% of organic solvent”.
